Test results reported in PubChem BioAssay (NCI).
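Dose response: 5 concentrations. Exposure: 48 h. Format: 96-well plates. Endpoint: linear interpolation; highest concentration if not reached. Here, GI50 denotes the concentration required for 50% inhibition of growth. TGI: total growth inhibition.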

Experiments:
Test in all cases: inhibition of tumour cell growth, NCI panel, 48 h; in the data active = GI50 below about 0.43 µM; inactive = the rest
SW-620 colon = system: SW-620 colon
PC-3 prostate = system: PC-3 prostate
HT29 colon = system: HT29 colon
COLO 205 colon = system: COLO 205 colon
OVCAR-5 ovarian = system: OVCAR-5 ovarian
BT-549 breast = system: BT-549 breast
UO-31 renal = system: UO-31 renal
A549 NSCLC = system: A549 NSCLC
RXF 393 renal = system: RXF 393 renal
IGROV1 ovarian = system: IGROV1 ovarian
HOP-62 NSCLC = system: HOP-62 NSCLC
HCT-116 colon = system: HCT-116 colon
T-47D breast = system: T-47D breast
LOX IMVI melanoma = system: LOX IMVI melanoma
LXFL 529 NSCLC = system: LXFL 529 NSCLC
NCI-H23 lung = system: NCI-H23 lung
HL-60(TB) leukemia = system: HL-60(TB) leukemia
MDA-MB-435 = system: MDA-MB-435
RXF-631 renal = system: RXF-631 renal
SNB-75 CNS = system: SNB-75 CNS
SK-MEL-2 melanoma = system: SK-MEL-2 melanoma
SR leukemia = system: SR leukemia
SK-MEL-28 melanoma = system: SK-MEL-28 melanoma
UACC-257 melanoma = system: UACC-257 melanoma
TK-10 renal = system: TK-10 renal
HCT-15 colon = system: HCT-15 colon
U251 CNS = system: U251 CNS
KM12 colon = system: KM12 colon
MALME-3M melanoma = system: MALME-3M melanoma
HOP-92 NSCLC = system: HOP-92 NSCLC
CAKI-1 renal = system: CAKI-1 renal
OVCAR-4 ovarian = system: OVCAR-4 ovarian
KM20L2 colon = system: KM20L2 colon
NCI-H522 lung = system: NCI-H522 lung
A498 renal = system: A498 renal
K-562 leukemia = system: K-562 leukemia
NCI-H322M lung = system: NCI-H322M lung
NCI/ADR-RES ovarian = system: NCI/ADR-RES ovarian
OVCAR-3 ovarian = system: OVCAR-3 ovarian
DLD-1 colon = system: DLD-1 colon
MDA-N = system: MDA-N
M14 melanoma = system: M14 melanoma
M19-MEL melanoma = system: M19-MEL melanoma
EKVX NSCLC = system: EKVX NSCLC
DMS 273 small cell lung = system: DMS 273 small cell lung
OVCAR-8 ovarian = system: OVCAR-8 ovarian
MOLT-4 leukemia = system: MOLT-4 leukemia
UACC-62 melanoma = system: UACC-62 melanoma
NCI-H226 lung = system: NCI-H226 lung
SF-268 CNS = system: SF-268 CNS
SK-OV-3 ovarian = system: SK-OV-3 ovarian
MCF7 breast = system: MCF7 breast
SF-539 CNS = system: SF-539 CNS
RPMI-8226 leukemia = system: RPMI-8226 leukemia
DMS 114 small cell lung = system: DMS 114 small cell lung
HS 578T breast = system: HS 578T breast
NCI-H460 lung = system: NCI-H460 lung
786-0 renal = system: 786-0 renal
SF-295 CNS = system: SF-295 CNS
MDA-MB-231 breast = system: MDA-MB-231 breast
SNB-19 CNS = system: SNB-19 CNS
SK-MEL-5 melanoma = system: SK-MEL-5 melanoma
SN12C renal = system: SN12C renal
CCRF-CEM leukemia = system: CCRF-CEM leukemia
HOP-18 NSCLC = system: HOP-18 NSCLC
HCC-2998 colon = system: HCC-2998 colon
ACHN renal = system: ACHN renal

O=[As](O)(O)CC(O)CO (centres undefined)
inactive: GI50 (SW-620 colon) > 100 µM | GI50 (PC-3 prostate) > 100 µM | GI50 (HT29 colon) > 100 µM | GI50 (COLO 205 colon) > 100 µM | GI50 (OVCAR-5 ovarian) > 100 µM | GI50 (BT-549 breast) > 100 µM | GI50 (UO-31 renal) > 100 µM | GI50 (A549 NSCLC) > 100 µM | GI50 (RXF 393 renal) > 100 µM | GI50 (IGROV1 ovarian) > 100 µM | GI50 (HOP-62 NSCLC) > 100 µM | GI50 (HCT-116 colon) > 100 µM | GI50 (T-47D breast) > 100 µM | GI50 (LOX IMVI melanoma) > 100 µM | GI50 (LXFL 529 NSCLC) > 100 µM | GI50 (NCI-H23 lung) > 100 µM | GI50 (HL-60(TB) leukemia) > 100 µM | GI50 (MDA-MB-435) > 100 µM | GI50 (RXF-631 renal) > 100 µM | GI50 (SNB-75 CNS) > 100 µM | GI50 (SK-MEL-2 melanoma) > 100 µM | GI50 (SR leukemia) > 100 µM | GI50 (SK-MEL-28 melanoma) > 100 µM | GI50 (UACC-257 melanoma) > 100 µM | GI50 (TK-10 renal) > 100 µM | GI50 (HCT-15 colon) > 100 µM | GI50 (U251 CNS) > 100 µM | GI50 (KM12 colon) > 100 µM | GI50 (MALME-3M melanoma) > 100 µM | GI50 (HOP-92 NSCLC) > 100 µM | GI50 (CAKI-1 renal) > 100 µM | GI50 (OVCAR-4 ovarian) > 100 µM | GI50 (KM20L2 colon) > 100 µM | GI50 (NCI-H522 lung) > 100 µM | GI50 (A498 renal) > 100 µM | GI50 (K-562 leukemia) > 100 µM | GI50 (NCI-H322M lung) > 100 µM | GI50 (NCI/ADR-RES ovarian) > 100 µM | GI50 (OVCAR-3 ovarian) > 100 µM | GI50 (DLD-1 colon) > 100 µM | GI50 (MDA-N) > 100 µM | GI50 (M14 melanoma) > 100 µM | GI50 (M19-MEL melanoma) > 100 µM | GI50 (EKVX NSCLC) > 100 µM | GI50 (DMS 273 small cell lung) > 100 µM | GI50 (OVCAR-8 ovarian) > 100 µM | GI50 (MOLT-4 leukemia) > 100 µM | GI50 (UACC-62 melanoma) > 100 µM | GI50 (NCI-H226 lung) > 100 µM | GI50 (SF-268 CNS) > 100 µM | GI50 (SK-OV-3 ovarian) > 100 µM | GI50 (MCF7 breast) > 100 µM | GI50 (SF-539 CNS) > 100 µM | GI50 (RPMI-8226 leukemia) > 100 µM | GI50 (DMS 114 small cell lung) > 100 µM | GI50 (HS 578T breast) > 100 µM | GI50 (NCI-H460 lung) > 100 µM | GI50 (786-0 renal) > 100 µM | GI50 (SF-295 CNS) > 100 µM | GI50 (MDA-MB-231 breast) > 100 µM | GI50 (SNB-19 CNS) > 100 µM | GI50 (SK-MEL-5 melanoma) > 100 µM | GI50 (SN12C renal) > 100 µM | GI50 (CCRF-CEM leukemia) > 100 µM | GI50 (HOP-18 NSCLC) > 100 µM | GI50 (HCC-2998 colon) > 100 µM | GI50 (ACHN renal) > 100 µM
> 100 µM: TGI (SW-620 colon) | TGI (PC-3 prostate) | TGI (HT29 colon) | TGI (COLO 205 colon) | TGI (OVCAR-5 ovarian) | TGI (BT-549 breast) | TGI (UO-31 renal) | TGI (A549 NSCLC) | TGI (RXF 393 renal) | TGI (IGROV1 ovarian) | TGI (HOP-62 NSCLC) | TGI (HCT-116 colon) | TGI (T-47D breast) | TGI (LOX IMVI melanoma) | TGI (LXFL 529 NSCLC) | TGI (NCI-H23 lung) | TGI (HL-60(TB) leukemia) | TGI (MDA-MB-435) | TGI (RXF-631 renal) | TGI (SNB-75 CNS) | TGI (SK-MEL-2 melanoma) | TGI (SR leukemia) | TGI (SK-MEL-28 melanoma) | TGI (UACC-257 melanoma) | TGI (TK-10 renal) | TGI (HCT-15 colon) | TGI (U251 CNS) | TGI (KM12 colon) | TGI (MALME-3M melanoma) | TGI (HOP-92 NSCLC) | TGI (CAKI-1 renal) | TGI (OVCAR-4 ovarian) | TGI (KM20L2 colon) | TGI (NCI-H522 lung) | TGI (A498 renal) | TGI (K-562 leukemia) | TGI (NCI-H322M lung) | TGI (NCI/ADR-RES ovarian) | TGI (OVCAR-3 ovarian) | TGI (DLD-1 colon) | TGI (MDA-N) | TGI (M14 melanoma) | TGI (M19-MEL melanoma) | TGI (EKVX NSCLC) | TGI (DMS 273 small cell lung) | TGI (OVCAR-8 ovarian) | TGI (MOLT-4 leukemia) | TGI (UACC-62 melanoma) | TGI (NCI-H226 lung) | TGI (SF-268 CNS) | TGI (SK-OV-3 ovarian) | TGI (MCF7 breast) | TGI (SF-539 CNS) | TGI (RPMI-8226 leukemia) | TGI (DMS 114 small cell lung) | TGI (HS 578T breast) | TGI (NCI-H460 lung) | TGI (786-0 renal) | TGI (SF-295 CNS) | TGI (MDA-MB-231 breast) | TGI (SNB-19 CNS) | TGI (SK-MEL-5 melanoma) | TGI (SN12C renal) | TGI (CCRF-CEM leukemia) | TGI (HOP-18 NSCLC) | TGI (HCC-2998 colon) | TGI (ACHN renal)
